Consider two compounds from US4968690A (priority 1989, dated 1990).

The test system of assay [1] is AdoHcy hydrolase in HL-60 cells. To be noted: for formation of neplanocylmethionine (NepMet): neplanocin A 10^-6 M, other analogs 10^-5 M.
The subject of assay [2] is AdoHcy-ase in HT-29 cells. The following applies: 24 hours.
In assay [3] the test system is AdoHcy-ase in HT-29 cells. The assay can be described thus: cells. To be noted: Homo sapiens, HT-29, 24 h, read-out: drug concentration at which increase in AdoHcy begins.

Turning to `Nc1ncnc2c1ncn2[C@@H]1C=C(CO)[C@@H](O)[C@H]1O` [Neplanocin A, 9-[(1'R,2'S,3'R)-4-Hydroxymethyl-2',3'-dihydroxy-4-cyclopenten-1'-yl]adenine, reference compound], the “accumulation of AdoHcy (in words)” value in assay [1] (10^-6 M) is “equivalent accumulation of AdoHcy”. Besides, the “formation of neplanocylmethionine (NepMet)” value in assay [1] is recorded as “even greater amount of the anabolite, neplanocylmethionine”. The “formation of methionine metabolite (NepMet)” value in assay [2] is on record as “also observed”. The AdoHcy concentration in assay [2] (1 to 100M drug) turned out to be 80 pmoles/10^6 cells. For the same compound, in assay [3], the minimal effective concentration is 0.1 µM.

With 3-deazaaristeromycin, the “formation of neplanocylmethionine (NepMet)” value in assay [1] was “not formed”. In assay [2], the “formation of methionine metabolite (NepMet)” value was “did not form a similar metabolite”.
